Results: patent publication US20150291593A1, “NOVEL HETEROARYL AND HETEROCYCLE COMPOUNDS, COMPOSITIONS AND METHODS” (HUTCHISON MEDIPHARMA LIMITED, priority 2012, published 2015)

Protein sequences, listed by entry. Tags and fused reporters are not part of them. Lines headed by an entry give the natural chain unless they say otherwise; changes in a name come on top.
UniProt O00329, whole entry, species assumed: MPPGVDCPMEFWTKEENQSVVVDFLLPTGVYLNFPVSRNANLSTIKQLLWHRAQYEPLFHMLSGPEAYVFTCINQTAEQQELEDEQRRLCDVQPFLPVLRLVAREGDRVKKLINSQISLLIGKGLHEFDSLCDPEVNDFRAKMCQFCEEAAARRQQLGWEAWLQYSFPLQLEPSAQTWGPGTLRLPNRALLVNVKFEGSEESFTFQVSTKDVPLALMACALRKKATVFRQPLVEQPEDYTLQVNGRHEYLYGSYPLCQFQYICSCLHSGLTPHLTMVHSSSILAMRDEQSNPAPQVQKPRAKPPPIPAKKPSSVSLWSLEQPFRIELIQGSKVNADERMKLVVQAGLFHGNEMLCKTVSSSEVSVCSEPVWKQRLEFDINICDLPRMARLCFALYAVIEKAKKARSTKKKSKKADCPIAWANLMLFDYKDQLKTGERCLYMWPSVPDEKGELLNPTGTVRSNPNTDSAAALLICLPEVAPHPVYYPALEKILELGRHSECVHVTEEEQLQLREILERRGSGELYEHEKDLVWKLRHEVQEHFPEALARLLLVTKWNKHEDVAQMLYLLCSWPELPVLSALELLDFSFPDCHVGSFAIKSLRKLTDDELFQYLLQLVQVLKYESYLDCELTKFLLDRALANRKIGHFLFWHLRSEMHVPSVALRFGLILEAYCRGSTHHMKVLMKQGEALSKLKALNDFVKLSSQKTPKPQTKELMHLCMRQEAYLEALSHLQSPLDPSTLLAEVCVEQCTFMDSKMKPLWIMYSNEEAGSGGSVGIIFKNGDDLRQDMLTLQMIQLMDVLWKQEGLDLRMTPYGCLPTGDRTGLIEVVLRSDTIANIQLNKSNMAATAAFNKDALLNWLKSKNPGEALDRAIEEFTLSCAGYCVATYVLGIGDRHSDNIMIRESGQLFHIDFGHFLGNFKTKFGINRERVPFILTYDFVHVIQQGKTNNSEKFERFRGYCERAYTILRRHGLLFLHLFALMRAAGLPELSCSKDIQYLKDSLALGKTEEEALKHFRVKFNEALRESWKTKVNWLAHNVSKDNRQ

Target: T1, p110δ/p85α (Homo sapiens, UniProt O00329)
T1 construct: purchased Invitrogen
Test: Transcreener KINASE Assay, kinase inhibition of p110δ/p85α
Format: biochemical
Conditions: read-out: PI3Kδ IC50

IC50: 3 nM
Structure (SMILES): N#Cc1c(N)ncnc1N1CCC[C@H]1c1nn2cccc2c(=O)n1-c1ccccc1 [Compound 5]
